# Target: recombinant form of Glutaminase 1 (GAC) (Homo sapiens, UniProt O94925)
# The chains behind the UniProt entries cited, without tags or fusion partners. Residues count along the entry.
# UniProt O94925, 55-669 limits assumed: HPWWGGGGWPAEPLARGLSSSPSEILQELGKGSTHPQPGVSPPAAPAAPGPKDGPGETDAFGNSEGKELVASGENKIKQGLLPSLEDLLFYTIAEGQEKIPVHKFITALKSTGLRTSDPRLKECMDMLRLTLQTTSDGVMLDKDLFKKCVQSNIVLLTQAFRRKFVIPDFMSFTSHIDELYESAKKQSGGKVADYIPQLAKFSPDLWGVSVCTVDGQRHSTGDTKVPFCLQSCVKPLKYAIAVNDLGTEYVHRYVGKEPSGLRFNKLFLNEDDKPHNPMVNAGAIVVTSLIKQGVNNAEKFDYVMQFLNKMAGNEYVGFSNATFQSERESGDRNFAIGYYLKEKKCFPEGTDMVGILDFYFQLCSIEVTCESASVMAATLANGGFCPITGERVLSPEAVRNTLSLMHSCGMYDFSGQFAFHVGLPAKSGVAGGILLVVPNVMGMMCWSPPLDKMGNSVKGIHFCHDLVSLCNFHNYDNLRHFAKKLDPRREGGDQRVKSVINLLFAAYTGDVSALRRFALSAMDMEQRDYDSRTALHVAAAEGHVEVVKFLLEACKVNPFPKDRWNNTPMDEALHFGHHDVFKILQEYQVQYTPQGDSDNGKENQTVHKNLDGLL
# Test: Recombinant Enzyme Assay (GAC coupled to GDH, NADH absorbance, no preincubation)
# Assay type: biochemical
# Settings: read-out: GAC Delta N2 IC50 no preinc
# Method: Enzymatic reaction was started with the addition of 50 μL of enzyme solution (50 mM Tris-HCl pH 8.0, 0.2 mM EDTA, 150 mM K2HPO4, 0.1 mg/ml BSA, 1 mM DTT, 10 ppm antifoam, 4 units/ml GDH, 4 mM adenosine diphosphate, and 4 nM GAC) and read in a Molecular Devices M5 plate reader at 20° C. The plate reader was configured to read absorbance (λ=340 nm) in kinetic mode for 15 minutes. Data was recorded as milli-absorbance units per minute and slopes were compared to a control compound and a DMSO-only control on the same plate. Compounds with slopes less than the DMSO control were considered inhibitors and plate variability was assessed using the control compound.
smiles,measurement,value
N[C@@H](C(=O)Nc1nnc(CCCCc2nnc(NC(=O)[C@H](N)c3ccccc3)s2)s1)c1ccccc1 [Compound 186],IC50,3.1 µM

# — patent US8604016B2, “Heterocyclic inhibitors of glutaminase” (Calithera Biosciences Inc., priority 2011, dated 2013)
